Data on one molecule can be found in article PMC2710984.

In this assay the target is GST–BIR3 fusion protein (XIAP BIR3 domain). As to the kind of experiment: FMAT bead-based fluorescence competition assay.

For the molecule AVAF (C-terminal primary amide) [Reaper 4-mer peptide AVAF (compound 6)], the IC50 (as a rule, the concentration that inhibits the measured activity by half) is 750 nM.
